Where a name gives a salt, the structure may show the parent alone. Read-outs that look alike come from different tables or passages of the source.

The chains behind the UniProt entries cited, without tags or fusion partners. Residues count along the entry.
UniProt Q92915, 1-252 isoform Q92915-2: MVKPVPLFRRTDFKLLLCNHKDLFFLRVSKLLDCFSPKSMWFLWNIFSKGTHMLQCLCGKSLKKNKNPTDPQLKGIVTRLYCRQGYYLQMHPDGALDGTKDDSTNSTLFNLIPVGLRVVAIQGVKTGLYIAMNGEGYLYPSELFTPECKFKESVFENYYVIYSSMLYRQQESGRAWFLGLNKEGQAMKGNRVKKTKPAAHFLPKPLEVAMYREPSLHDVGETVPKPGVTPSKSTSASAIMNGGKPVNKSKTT
UniProt Q9UQD0, 1763-1976 limits assumed: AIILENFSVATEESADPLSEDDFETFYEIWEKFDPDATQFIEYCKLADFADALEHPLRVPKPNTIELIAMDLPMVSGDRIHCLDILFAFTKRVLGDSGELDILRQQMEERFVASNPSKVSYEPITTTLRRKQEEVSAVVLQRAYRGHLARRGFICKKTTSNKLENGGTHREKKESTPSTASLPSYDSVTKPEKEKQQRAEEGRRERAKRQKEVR
UniProt P08659, whole entry N50D/N119G/S548I/K549A/L550V, looked up: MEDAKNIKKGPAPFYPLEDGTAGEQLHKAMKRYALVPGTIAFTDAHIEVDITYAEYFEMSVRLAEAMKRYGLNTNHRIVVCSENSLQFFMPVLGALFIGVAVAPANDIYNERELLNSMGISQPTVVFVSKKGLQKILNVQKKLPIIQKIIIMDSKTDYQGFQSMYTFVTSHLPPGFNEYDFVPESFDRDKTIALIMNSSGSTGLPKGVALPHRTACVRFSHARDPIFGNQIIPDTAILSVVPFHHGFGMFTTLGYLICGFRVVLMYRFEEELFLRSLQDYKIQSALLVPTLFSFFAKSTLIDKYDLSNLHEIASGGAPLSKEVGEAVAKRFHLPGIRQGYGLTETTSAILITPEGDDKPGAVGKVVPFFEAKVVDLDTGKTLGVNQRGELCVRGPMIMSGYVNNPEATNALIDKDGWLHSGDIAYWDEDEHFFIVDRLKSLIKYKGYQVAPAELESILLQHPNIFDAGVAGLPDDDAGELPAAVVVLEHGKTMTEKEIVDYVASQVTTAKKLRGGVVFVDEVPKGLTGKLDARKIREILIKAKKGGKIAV

The subject of data set [1] is Clone V cells.
In data set [2] the target is FGF14:Nav1.6 C-tail complex (Homo sapiens, UniProt Q92915+Q9UQD0). The data set is described as follows: Split-luciferase complementation assay (LCA) in Clone V double stable HEK293 cells.
A short description of data set [3]: in vitro. The conditions noted are these: human.
Data set [4] addresses full-length P. pyralis luciferase (Photinus pyralis, UniProt P08659, K549A/L550V/N119G/N50D/S548I).
Where [5] appears, read: CC_NCI screening, biological replicate Set 2, normalized to on-plate 0.3% DMSO controls.
[6] abbreviates: CC_NCI screening, biological replicate Set 2, normalized to on-plate 0.3% DMSO controls (n=16 per plate).
Where [7] appears, read: CC_NCI screening, full-length luciferase counter-screen, normalized to on-plate 0.3% DMSO controls.

`O=c1cc(N2CCOCC2)nc2c3ccccc3ccn12` [COMPOUND 401]: in data set [1], the “Toxicity Assay Z-score (CTB cell viability)” value is reported as 2.21.
Consider `CS(=O)(=O)CCNCc1ccc(-c2ccc3ncnc(Nc4ccc(OCc5cccc(F)c5)c(Cl)c4)c3c2)o1` [Lapatinib], for which the “Split Luciferase Assay % Lum Set 1” value in data set [2] (CC_NCI screening, biological replicate Set 1, normalized to on-plate 0.3% DMSO controls (n=16 per plate)) is recorded as 116.65%.
Take `CS(=O)(=O)c1ccc(C2=C(c3ccccc3)C(=O)OC2)cc1` [ROFECOXIB]: the “Split Luciferase Assay Z-score Set 2” value in data set [2] (setting [5]) was -3.82. Moreover, the “Split Luciferase Assay %Lum Set 2” value in data set [2] (setting [6]) amounted to 53.06%.
Turning to `O=[N+]([O-])c1ccc(-c2nc(-c3ccncc3)c(-c3ccc(F)cc3)[nH]2)cc1` [PD 169316], the “Toxicity Assay Z-score (CTB cell viability)” value in data set [1] (human) came to 0.13. In addition, the viability in data set [3] worked out at 101%.
For CHIR 98014, in data set [4], the “Luciferase Assay % Lum” value amounted to 78.77% and the “Luciferase Assay Z-score” value is -2.72. Further, in data set [2], the “Split Luciferase Assay %Lum Avg” value worked out at 56.59%, the “Split Luciferase Assay %Lum Set 2” value came to 53.06% and the “Split Luciferase Assay Z-score Set 2” value is on record as -3.82.
As to `COc1cccc2c1C(=O)c1c(O)c3c(c(O)c1C2=O)C[C@@](O)(C(=O)CO)C[C@@H]3O[C@H]1C[C@H](N)[C@H](O)[C@H](C)O1` [Doxorubicin hydrochloride], the “Luciferase Assay Z-score” value in data set [4] (setting [7]) is on record as -2.72.
Turning to `C[C@@H](Oc1cc(-c2cnn(C3CCNCC3)c2)cnc1N)c1c(Cl)ccc(F)c1Cl` [PF-2341066], the “Luciferase Assay % Lum” value in data set [4] (CC_NCI screening, full-length luciferase counter-screen luminescence, normalized to on-plate 0.3% DMSO controls) was 78.75%. For the same molecule, the “Luciferase Assay Z-score” value in data set [4] (setting [7]) is given as -2.72.
Regarding `Cc1ccc([N+](=O)[O-])cc1S(=O)(=O)N(C)/N=C/c1cnc2ccc(Br)cn12` [PIK 75, reference compound], the “Split Luciferase Assay Z-score Set 2” value in data set [2] (setting [5]) is listed as -3.82. The “Split Luciferase Assay %Lum Set 2” value in data set [2] (setting [6]) is recorded as 53.06%.
For `Cc1c2oc3c(C)ccc(C(=O)N[C@@H]4C(=O)N[C@H](C(C)C)C(=O)N5CCC[C@H]5C(=O)N(C)CC(=O)N(C)[C@@H](C(C)C)C(=O)O[C@@H]4C)c3nc-2c(C(=O)N[C@@H]2C(=O)N[C@H](C(C)C)C(=O)N3CCC[C@H]3C(=O)N(C)CC(=O)N(C)[C@@H](C(C)C)C(=O)O[C@@H]2C)c(N)c1=O` [Dactinomycin], the “Split Luciferase Assay % Lum Set 1” value in data set [2] (CC_NCI screening, LCA luminescence, biological replicate Set 1, normalized to on-plate 0.3% DMSO controls (n=16 per plate)) was determined as 60.12%. Also, in data set [2] (CC_NCI screening, LCA, biological replicate Set 1, normalized to on-plate 0.3% DMSO controls), the “Split Luciferase Assay Z-score Set 1” value is given as -3.22.

One may read the viability as a read-out of living cells in per cent, often relative to untreated cells.

These data come from paper PMC6858373 (Scientific Reports, 2019).
